Experimental data from ChEMBL document CHEMBL1208792, “A novel series of [3.2.1] azabicyclic biaryl ethers as alpha3beta4 and alpha6/4beta4 nicotinic receptor agonists” (Bioorg Med Chem Lett, 2010).

Amino acid sequences for entries named in this document (tags omitted).
UniProt P36544, whole entry: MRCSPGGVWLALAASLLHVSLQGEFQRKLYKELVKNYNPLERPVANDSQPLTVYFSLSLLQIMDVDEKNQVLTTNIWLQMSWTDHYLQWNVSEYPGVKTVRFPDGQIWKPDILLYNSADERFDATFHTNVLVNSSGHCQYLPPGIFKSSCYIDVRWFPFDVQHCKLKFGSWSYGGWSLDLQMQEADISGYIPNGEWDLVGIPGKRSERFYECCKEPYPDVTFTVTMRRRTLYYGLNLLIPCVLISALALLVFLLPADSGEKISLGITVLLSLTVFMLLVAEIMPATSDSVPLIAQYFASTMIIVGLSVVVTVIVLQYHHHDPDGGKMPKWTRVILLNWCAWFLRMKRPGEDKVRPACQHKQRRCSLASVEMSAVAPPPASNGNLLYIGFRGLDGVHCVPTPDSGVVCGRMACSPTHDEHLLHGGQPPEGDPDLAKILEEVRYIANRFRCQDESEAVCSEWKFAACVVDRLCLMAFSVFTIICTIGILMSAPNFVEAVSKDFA

Biological target: Neuronal acetylcholine receptor subunit alpha-7 (Homo sapiens, UniProt P36544)
Assay: Displacement of [3H]epibatidine from alpha7 nicotinic receptor expressed in human HEK293 cells
Assay type: cell-based

Ki: 125 nM
Compound: c1cnc2cc3c(cc2n1)[C@@H]1CNC[C@H]3C1 [VARENICLINE]
